Assay results reported in patent US5830452A, “Method for enhancing the anti-tumor therapeutic index of interleukin-2” (Chiron Corporation, priority 1994, dated 1998).

How the values were obtained:
murine tumor = conditions: versus IL-2; cited from earlier work
Meth A tumor = Meth A tumor mice, one bolus dose of IL-2 or PEG-IL-2 (peak height and shape of clearance curve), Table 1; assay type: in vivo
Method: Unmodified IL-2 and PEG modified IL-2 were administered to mice who were transplanted with a Meth A tumor. The technical details for the materials and methods are similar to those specifically set out in Zimmerman et al., 1989, Cancer Research, 49:6521-6528 which is hereby incorporated by reference in its entirety.
The purpose of this experiment was to define the peak height and shape of the IL-2 blood concentration curve. Unmodified IL-2 (IL-2) and PEG modified IL-2 (having apparent molecular weights of 95 kD and 160 kD) were given to the mice in one bolus dose. […] Consequently, one can determine the effect of dose and duration by administering IL-2 and PEG-IL-2 molecules that will remain in the body for varying lengths of time.
PEG modified IL-2 (160 kD apparent molecular weight) was also administered to the mice. As shown in Table 5(B), four different treatment schedules were used: Q7D×2, Q4D×3, Q3D×4, and Q2D×5. The 3 total dose levels of 50, 25 or 12.5 mg/kg PEG-IL-2 were based on preliminary single dose studies. A single i.v. dose of PEG-IL-2 at 50, 25 or 12.5 mg/kg was lethal in 5/5, 2/5, or 0/5 Meth A bearing mice, respectively. When these same total doses were divided and delivered by the various schedules, the toxicity of the treatments was schedule dependent. […] The other combinations of dose and schedule were not lethal, with the exception of the 25 mg/kg dose on the Q2D×5 schedule (Table 5(B)). As discussed below, this dependence on the frequency of administration to produce the lethality is related to the minimum plasma concentration of L-2 attained between doses (i.e., the trough).

| Substance | increase in total area under the plasma curve (murine tumor) | % TGI (Meth A tumor; 24 mg/kg single bolus) | Cures (Meth A tumor; 24 mg/kg single bolus) | % TGI (Meth A tumor; 48 mg/kg single bolus) | Cures (Meth A tumor; 48 mg/kg single bolus) | % TGI (Meth A tumor; 60 mg/kg single bolus) | Cures (Meth A tumor; 60 mg/kg single bolus) | toxicity (Meth A tumor; up to 60 mg/kg) |
| --- | --- | --- | --- | --- | --- | --- | --- | --- |
| PEGylated IL-2: IL-2 covalently modified with polyethylene glycol (Katre et al., Zimmerman et al.) [reference compound] | 15-20 -fold | – | – | – | – | – | – | – |
| 95 kD PEG IL-2: PEG modified IL-2 having apparent molecular weight of 95 kD | – | 46% | 0/5 | 82% | 0/5 | 93% | 3/5 | not toxic |
